In ChEMBL document CHEMBL1121956, “Potential antitumor agents. 37. Organophosphorus derivatives of 9-anilinoacridine” (1982):

Columns and labels:
[1] = test system: P388; experiment: Percentage increase in life span was measured for P-388 cells in culture after intraperitoneal administration of a dose of 38 mg/kg; conditions: Mus musculus
[2] = test system: Nucleic Acid; experiment: […] association constant for DNA binding to poly (dA.dT); assay type: nucleic-acid assay
How it was run: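 Association constant for binding to the synthetic polynucleotide poly(dA-dT). Measured by a method described in earlier work.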

Question: For `COP(C)(=O)Nc1ccc(Nc2c3ccccc3nc3ccccc23)cc1` (configuration not stated), which ILS [1] is on record?
Answer: 49%

Question: What about the Log K [2] of the same compound?
Answer: 6.34
